In patent publication US9629892B2, “Treatment of penetrative injury to the brain” (NoNO Inc., priority 2010, dated 2017):

Tests used:
PBBI rats [1] = assay: PBBI neuropathology: lesion volume in brain sections (H&E, TTC staining); details: Study 1, H&E stained sections
PBBI rats [2] = assay: Fixed-speed rotarod task after PBBI injury; format: in vivo, rat; details: Study 2; 0.50 mg/kg vs 0.05 and 0.275 mg/kg; 7 days post-PBBI
PBBI rats [3] = assay: Neuroscore after PBBI injury; format: in vivo, rat; details: Study 2; 0.5 mg/kg vs 0.05 and 0.275 mg/kg; 3 and 7 days post PBBI

For YGRKKRRQRRRKLSSIESDV [Tat-NR2B9c], the “extent (volume) of the lesion, trend particularly in the more caudal sections” value (PBBI rats [1]; 0.5 mg/kg) was “reduced the extent (i.e., volume) of the lesion”, the “extent (volume) of the lesion, trend particularly in the more caudal sections” value (PBBI rats [1]; 5.0 mg/kg) was “reduced the extent (i.e., volume) of the lesion” and the “PBBI-induced motor abnormalities on the rotarod task” value (PBBI rats [2]) was “more effective than the lower doses”. For the same sequence, the “neuroscore (injury-induced neurological deficits)” value (PBBI rats [3]) was “most effective in reducing injury-induced neurological deficits”.
